Data from ChEMBL document CHEMBL1140999, “Succinyl hydroxamates as potent and selective non-peptidic inhibitors of procollagen C-proteinase: design, synthesis, and evaluation as topically applied, dermal anti-scarring agents” (Bioorg Med Chem Lett, 2008).

Sequences of proteins named here, by UniProt entry; tags and fusion partners are left off. A change or cut given only in a name is not applied to a line headed by its entry.
UniProt P08253: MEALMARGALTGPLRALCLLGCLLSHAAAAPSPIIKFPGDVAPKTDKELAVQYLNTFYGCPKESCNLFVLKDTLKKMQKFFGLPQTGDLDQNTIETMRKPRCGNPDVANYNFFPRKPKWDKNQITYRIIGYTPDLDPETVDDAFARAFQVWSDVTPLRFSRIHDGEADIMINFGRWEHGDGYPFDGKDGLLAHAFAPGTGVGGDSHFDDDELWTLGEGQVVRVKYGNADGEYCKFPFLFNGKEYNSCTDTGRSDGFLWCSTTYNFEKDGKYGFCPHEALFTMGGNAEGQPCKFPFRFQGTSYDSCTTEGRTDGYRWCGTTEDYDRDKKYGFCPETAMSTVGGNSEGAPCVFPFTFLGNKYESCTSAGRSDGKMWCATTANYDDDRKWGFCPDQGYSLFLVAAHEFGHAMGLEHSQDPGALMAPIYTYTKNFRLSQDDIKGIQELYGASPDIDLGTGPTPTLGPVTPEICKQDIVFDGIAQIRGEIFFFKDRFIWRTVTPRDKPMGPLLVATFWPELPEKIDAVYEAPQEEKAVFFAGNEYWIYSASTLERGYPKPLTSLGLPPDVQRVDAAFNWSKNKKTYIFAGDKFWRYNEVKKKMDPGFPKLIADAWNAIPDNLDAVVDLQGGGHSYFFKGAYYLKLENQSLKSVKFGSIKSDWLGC

Molecular target: 72 kDa type IV collagenase (Homo sapiens, UniProt P08253)
Experiment: Inhibition of human MMP2 by fluorescence assay

IC50 [µM] | Structure (SMILES)
50.5 | CN(Cc1ccccn1)C(=O)c1noc([C@H](CCCC2CCCCC2)CC(=O)NO)n1
74.9 | O=C(C[C@@H](CCCC1CCCCC1)c1nc(C(=O)N2CCCCC2)no1)NO
> 100 | CN(C)C(=O)c1noc([C@H](CCCC2CCCCC2)CC(=O)NO)n1
21.7 | CCCNC(=O)c1noc([C@H](CCCC2CCCCC2)CC(=O)NO)n1
81.8 | CN(Cc1ccccc1)C(=O)c1noc([C@H](CCCC2CCCCC2)CC(=O)NO)n1
> 100 | O=C(O)CNC(=O)c1noc([C@H](CCCC2CCCCC2)CC(=O)NO)n1
> 30 | O=C(C[C@@H](CCCC1CCCCC1)c1nc(C(=O)NCc2ccccn2)no1)NO
> 30 | CNC(=O)c1noc([C@H](CCCC2CCCCC2)CC(=O)NO)n1
> 30 | O=C(C[C@@H](CCCC1CCCCC1)c1nc(C(=O)NCC2CC2)no1)NO
> 100 | CC(C)NC(=O)c1noc([C@H](CCCC2CCCCC2)CC(=O)NO)n1
